Experimental data published in ChEMBL document CHEMBL1134592, “Design and synthesis of matrix metalloproteinase inhibitors guided by molecular modeling. Picking the S(1) pocket using conformationally constrained inhibitors” (J Med Chem, 2001).

Molecular target: T1, Interstitial collagenase (Homo sapiens, UniProt P03956)
T1 sequence (P03956 whole entry): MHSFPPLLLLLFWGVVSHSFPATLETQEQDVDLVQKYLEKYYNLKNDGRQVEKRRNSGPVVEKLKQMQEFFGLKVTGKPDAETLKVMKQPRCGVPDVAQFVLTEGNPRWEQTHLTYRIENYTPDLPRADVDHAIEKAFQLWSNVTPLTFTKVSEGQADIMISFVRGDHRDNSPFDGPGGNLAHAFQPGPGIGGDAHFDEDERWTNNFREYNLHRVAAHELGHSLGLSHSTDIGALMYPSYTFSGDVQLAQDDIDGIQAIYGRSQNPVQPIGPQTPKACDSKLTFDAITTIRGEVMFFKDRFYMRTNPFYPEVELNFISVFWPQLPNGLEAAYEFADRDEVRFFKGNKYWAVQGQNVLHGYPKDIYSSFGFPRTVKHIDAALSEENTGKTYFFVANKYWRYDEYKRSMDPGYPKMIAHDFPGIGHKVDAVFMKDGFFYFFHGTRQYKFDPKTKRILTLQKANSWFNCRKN
Experiment: Inhibition of human matrix metalloprotease-1

- IC50: 198 nM
SMILES: COc1ccc(S(=O)(=O)N2CC(C)(C)C(CSCc3ccccc3)[C@@H]2C(=O)NO)cc1 (stereo partly specified)
